Source: patent US20230203204A1

Protein sequences, listed by entry. Tags and fused reporters are not part of them. Residues count along the entry.
UniProt P50591, 114-281 limits assumed: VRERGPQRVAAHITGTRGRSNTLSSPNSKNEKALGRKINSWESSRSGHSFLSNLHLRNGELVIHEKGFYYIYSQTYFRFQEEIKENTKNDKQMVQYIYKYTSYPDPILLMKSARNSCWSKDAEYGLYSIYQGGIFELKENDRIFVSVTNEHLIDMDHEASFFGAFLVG

Molecular target: rhTRAIL (Histidine tag, R&D Systems) (human) (UniProt P50591)
Experiment: cell-based or functional assay

inhibition of rhTRAIL-induced apoptosis of L929 cells (crystal violet staining): 0.27 nM
Substance: Recombinant human OPG-Fc fusion protein (Novo Protein) (from UniProt O00300 22-401)
